Experimental data from US20260207704A1, “STAPLED PEPTIDES AND METHODS THEREOF” (priority 2022, published 2026).

Chains of the proteins cited; added tags and fusions are not shown.
UniProt P35222, whole entry: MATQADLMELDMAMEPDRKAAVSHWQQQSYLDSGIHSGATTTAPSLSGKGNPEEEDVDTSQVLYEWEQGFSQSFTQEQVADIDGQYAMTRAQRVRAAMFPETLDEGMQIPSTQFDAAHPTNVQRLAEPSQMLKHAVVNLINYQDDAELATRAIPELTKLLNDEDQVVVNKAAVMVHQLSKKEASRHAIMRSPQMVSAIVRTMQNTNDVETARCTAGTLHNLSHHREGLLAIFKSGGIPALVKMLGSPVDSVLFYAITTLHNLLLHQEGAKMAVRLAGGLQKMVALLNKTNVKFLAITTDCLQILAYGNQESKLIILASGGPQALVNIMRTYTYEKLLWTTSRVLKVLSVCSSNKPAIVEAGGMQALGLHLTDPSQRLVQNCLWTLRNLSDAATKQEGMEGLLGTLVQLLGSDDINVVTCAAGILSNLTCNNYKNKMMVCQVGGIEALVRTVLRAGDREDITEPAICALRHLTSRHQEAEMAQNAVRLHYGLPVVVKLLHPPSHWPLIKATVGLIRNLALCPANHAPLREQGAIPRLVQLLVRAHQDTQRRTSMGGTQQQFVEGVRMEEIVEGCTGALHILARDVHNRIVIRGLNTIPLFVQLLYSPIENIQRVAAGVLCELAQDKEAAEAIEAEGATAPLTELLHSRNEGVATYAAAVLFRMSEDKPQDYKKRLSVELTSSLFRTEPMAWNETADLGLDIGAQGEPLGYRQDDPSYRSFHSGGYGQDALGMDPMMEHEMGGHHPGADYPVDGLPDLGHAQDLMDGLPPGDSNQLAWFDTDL

Columns and labels:
beta-catenin = beta-catenin (Homo sapiens, UniProt P35222); assay: fluorescence polarization binding to beta-catenin; conditions: beta-Catenin FP IC50 (nM)
beta-catenin/TCF4 = biological target: T1, beta-catenin/TCF4 (Homo sapiens, UniProt P35222); assay: Nano-BRET target engagement assay (HEK293 cells); type: cell-based
T1 construct: expressed in transfected cells; host or cells: HEK293 cells

| IC50 (beta-catenin) [nM] | IC50 (beta-catenin/TCF4) [nM] | SMILES |
| --- | --- | --- |
| < 50 | > 10000 | CC(=O)N1CCC[C@]12CC=CCCCC1(CCCC=CCCCOC(=O)N3CC[C@@]4(C3)NC(=O)[C@H](CCCCNC(=O)CC[C@@H](C(=O)N[C@@H](C)C(N)=O)NC(=O)[C@H](Cc3csc5ccccc35)NC(=O)[C@H](Cc3ccsc3)NC4=O)NC(=O)[C@H](Cc3ccccc3)NC(=O)[C@H](C)NC(=O)[C@H](CCS(C)(=O)=O)NC(=O)[C@H](Cc3cccc(C(=O)O)c3)NC(=O)[C@H](CC(=O)O)NC1=O)NC(=O)[C@H](CC(C)(C)C)NC(=O)[C@H](CC(=O)O)NC2=O (relative stereo) [I-380, Ac-PL3-Asp-Npg-B5-Asp-3COOHF-Met20-Ala-Phe-Lys*3-PyrS2-3Thi-BztA-GlnR*3-Ala-NH2] |
| < 50 | 3000 to 10000 | CC(=O)N1CCC[C@]12CC=CCCCC1(CCCC=CCCCOC(=O)N3CC[C@@]4(C3)NC(=O)[C@H](CCCCNC(=O)CC[C@@H](C(=O)N[C@@H](C)C(N)=O)NC(=O)[C@H](Cc3csc5ccccc35)NC(=O)[C@H](Cc3ccsc3)NC4=O)NC(=O)[C@H](Cc3ccccc3)NC(=O)[C@H](C)NC(=O)C(C)(C)NC(=O)[C@H](Cn3cc(CC(C)(C)C(=O)O)nn3)NC(=O)[C@H](CC(=O)O)NC1=O)NC(=O)[C@H](CC(C)(C)C)NC(=O)[C@H](CC(N)=O)NC2=O (relative stereo) [I-315, Ac-PL3-Asn-Npg-B5-Asp-[CH2CMe2CO2H]TriAzDap-Aib-Ala-Phe-Lys*3-PyrS2-3Thi-BztA-GlnR*3-Ala-NH2] |
| < 50 | < 1500 | CC(=O)N1CCC[C@]12CC=CCCCC1(CCCC=CCCCOC(=O)N3CC[C@@]4(C3)NC(=O)[C@H](CCCCNC(=O)CC[C@@H](C(=O)N[C@@H](C)C(N)=O)NC(=O)[C@H](Cc3csc5ccccc35)NC(=O)[C@H](Cc3ccccc3C(F)(F)F)NC4=O)NC(=O)[C@H](Cc3ccccc3)NC(=O)[C@H](C)NC(=O)C(C)(C)NC(=O)[C@H](Cc3ccc(O)c(C(=O)O)c3)NC(=O)[C@H](CC(=O)O)NC1=O)NC(=O)[C@H](CC(C)(C)C)NC(=O)[C@H](CC(=O)O)NC2=O (relative stereo) [I-194, Ac-PL3-Asp-Npg-B5-Asp-40H3COOHF-Aib-Ala-Phe-Lys*3-PyrS2-2F3MeF-BztA-GlnR*3-Ala-NH2] |
| < 50 | 1500 to 3000 | CCNC(=O)[C@H](C)NC(=O)[C@@H]1CCC(=O)NCCCC[C@@H]2NC(=O)[C@H](Cc3ccccc3)NC(=O)[C@H](C)NC(=O)C(C)(C)NC(=O)[C@H](Cc3cccc(C(=O)O)c3)NC(=O)[C@H](CC(=O)O)NC(=O)C3(CCCC=CCCCOC(=O)N4CC[C@@](C4)(NC2=O)C(=O)N[C@@H](Cc2ccccc2C(F)(F)F)C(=O)N[C@@H](Cc2csc4ccccc24)C(=O)N1)CCCC=CC[C@]1(CCCN1C(C)=O)C(=O)N[C@@H](CC(=O)O)C(=O)N[C@@H](CC(C)(C)C)C(=O)N3 (relative stereo) [I-226, Ac-PL3-Asp-Npg-B5-Asp-3COOHF-Aib-Ala-Phe-Lys*3-PyrS2-2F3MeF-BztA-GlnR*3-Ala-NHEt] |
| < 50 | 3000 to 10000 | CC(=O)N1CCC[C@]12CC=CCCCC1(CCCC=CCCCOC(=O)N3CC[C@@]4(C3)NC(=O)[C@H](CCCCNC(=O)CC[C@@H](C(=O)N[C@@H](C)C(N)=O)NC(=O)[C@H](Cc3csc5ccccc35)NC(=O)[C@H](Cc3ccsc3)NC4=O)NC(=O)[C@H](Cc3ccccc3)NC(=O)[C@H](C)NC(=O)C(C)(C)NC(=O)[C@H](Cn3cc(CC(C)(C)C(=O)O)nn3)NC(=O)[C@H](CC(N)=O)NC1=O)NC(=O)[C@H](CC(C)(C)C)NC(=O)[C@H](CC(=O)O)NC2=O (relative stereo) [I-318, Ac-PL3-Asp-Npg-B5-Asn-[CH2CMe2CO2H]TriAzDap-Aib-Ala-Phe-Lys*3-PyrS2-3Thi-BztA-GlnR*3-Ala-NH2] |
| < 50 | 3000 to 10000 | CC(=O)N1CCC[C@]12CC=CCCCC1(CCCC=CCCCOC(=O)N3CC[C@@]4(C3)NC(=O)[C@H](CCCCNC(=O)CC[C@@H](C(=O)N[C@H](CO)[C@@H](C)O)NC(=O)[C@H](Cc3csc5ccccc35)NC(=O)[C@H](Cc3ccsc3)NC4=O)NC(=O)[C@H](Cc3ccccc3)NC(=O)[C@H](C)NC(=O)[C@H](C)NC(=O)[C@H](Cc3cccc(C(=O)O)c3)NC(=O)[C@H](CC(=O)O)NC1=O)NC(=O)[C@H](CC(C)(C)C)NC(=O)[C@H](CC(=O)O)NC2=O (single isomer, unassigned) [I-62, Ac-PL3-Asp-Npg-B5-Asp-3COOHF-Ala-Ala-Phe-Lys*3-PyrS2-3Thi-BztA-GlnR*3-Throl] |
| < 50 | > 10000 | CC(=O)N1CCC[C@]12CC=CCCCC13CCCC=CCCCOC(=O)N4CC[C@@]5(C4)NC(=O)[C@H](CCCCNC(=O)CC[C@@H](C(=O)N[C@@H](C)C(N)=O)NC(=O)[C@H](Cc4csc6ccccc46)NC(=O)[C@H](Cc4ccsc4)NC5=O)NC(=O)[C@H](Cc4ccccc4)NC(=O)[C@H](C)NC(=O)[C@H](CCCCNC(=O)CC[C@H](NC(=O)[C@H](CC(=O)O)NC2=O)C(=O)N1)NC(=O)[C@H](Cc1cccc(C(=O)O)c1)NC(=O)[C@H](CC(=O)O)NC3=O (relative stereo) [I-74, Ac-PL3-Asp-GlnR**3-B5-Asp-3COOHF-Lys**3-Ala-Phe-Lys*3-PyrS2-3Thi-BztA-GlnR*3-Ala-NH2] |

Second part, the compound before the results:

| SMILES | IC50 (beta-catenin) [nM] | IC50 (beta-catenin/TCF4) [nM] |
| --- | --- | --- |
| CC(=O)N1CCC[C@]12CC=CCCCC1(CCCC=CCCCOC(=O)N3CC[C@@]4(C3)NC(=O)[C@H](CC(C)C)NC(=O)[C@H](Cc3ccccc3)NC(=O)[C@H](C)NC(=O)[C@H](CCCCNC(=O)c3cccc(c3)C(=O)NCCCC[C@@H](C(N)=O)NC(=O)[C@H](Cc3csc5ccccc35)NC(=O)[C@H](Cc3ccccc3Cl)NC4=O)NC(=O)[C@H](Cc3cccc(C(=O)O)c3)NC(=O)[C@H](CC(=O)O)NC1=O)NC(=O)[C@H](CC(C)(C)C)NC(=O)[C@H](CC(=O)O)NC2=O (stereo partly drawn) [I-50, Ac-PL3-Asp-Npg-B5-Asp-3COOHF-[isophthalate]-Lys-Ala-Phe-Leu-PyrS2-2ClF-BztA-Lys-NH2] | 50 to 200 | > 10000 |
| CC(=O)N1CCC[C@]12CCCCCCC1(CCCCCCCCOC(=O)N3CC[C@@]4(C3)NC(=O)[C@H](CC(C)C)NC(=O)[C@H](Cc3ccccc3)NC(=O)[C@H](C)NC(=O)[C@H](CCC(=O)N3CCC5(CCN(CC5)C(=O)CC[C@@H](C(=O)N[C@@H](C)C(N)=O)NC(=O)[C@H](Cc5csc6ccccc56)NC(=O)[C@H](Cc5ccccc5C(F)(F)F)NC4=O)CC3)NC(=O)[C@H](Cc3cccc(C(=O)O)c3)NC(=O)[C@H](CC(=O)O)NC1=O)NC(=O)[C@H](CC(C)(C)C)NC(=O)[C@H](CC(=O)O)NC2=O (stereo partly drawn) [I-133, Ac-PL3-Asp-Npg-B5-Asp-3COOHF-GlnR-Ala-Phe-Leu-PyrS2-2F3MeF-BztA-[39N2spiroundecane]GlnR-Ala-NH2] | 750 to 1000 | > 10000 |
| CC(=O)N1CCC[C@]12CC=CCCCC1(CCCC=CCCCOC(=O)N3CC[C@@]4(C3)NC(=O)[C@H](CCCNC(=O)C[C@@H](C(N)=O)NC(=O)[C@H](Cc3csc5ccccc35)NC(=O)[C@H](Cc3ccsc3)NC4=O)NC(=O)[C@H](Cc3ccccc3)NC(=O)[C@H](C)NC(=O)[C@H](C)NC(=O)[C@H](Cc3cccc(C(=O)O)c3)NC(=O)[C@H](CC(=O)O)NC1=O)NC(=O)[C@H](CC(C)(C)C)NC(=O)[C@H](CC(=O)O)NC2=O (relative stereo) [I-39, Ac-PL3-Asp-Npg-B5-Asp-3COOHF-Ala-Ala-Phe-Orn*3-PyrS2-3Thi-BztA-AsnR*3-NH2] | < 50 | > 10000 |
| CC(=O)N1CCC[C@]12CC=CCCCC1(CCCC=CCCCOC(=O)N3CC[C@@]4(C3)NC(=O)[C@H](CCCCNC(=O)CC[C@@H](C(=O)N3CCC[C@H]3CO)NC(=O)[C@H](Cc3csc5ccccc35)NC(=O)[C@H](Cc3ccsc3)NC4=O)NC(=O)[C@H](Cc3ccccc3)NC(=O)[C@H](C)NC(=O)[C@H](C)NC(=O)[C@H](Cc3cccc(C(=O)O)c3)NC(=O)[C@H](CC(=O)O)NC1=O)NC(=O)[C@H](CC(C)(C)C)NC(=O)[C@H](CC(=O)O)NC2=O (relative stereo) [I-64, Ac-PL3-Asp-Npg-B5-Asp-3COOHF-Ala-Ala-Phe-Lys*3-PyrS2-3Thi-BztA-GlnR*3-Prool] | < 50 | 1500 to 3000 |
| CC(=O)N1CCC[C@]12CC=CCCCC1(CCCC=CCCCOC(=O)N3CC[C@@]4(C3)NC(=O)[C@H](CSc3c(F)c(F)c(c(F)c3F)SC[C@@H](C(=O)N[C@@H](C)C(N)=O)NC(=O)[C@H](Cc3csc5ccccc35)NC(=O)[C@H](Cc3ccccc3C(F)(F)F)NC4=O)NC(=O)[C@H](Cc3ccccc3)NC(=O)[C@H](C)NC(=O)C(C)(C)NC(=O)[C@H](Cc3cccc(C(=O)O)c3)NC(=O)[C@H](CC(=O)O)NC1=O)NC(=O)[C@H](CC(C)(C)C)NC(=O)[C@H](CC(=O)O)NC2=O (stereo partly drawn) [I-339, Ac-PL3-Asp-Npg-B5-Asp-3COOHF-Aib-Ala-Phe-[4FB]Cys-PyrS2-2F3MeF-BztA-Cys-Ala-NH2] | 200 to 750 | > 10000 |
| CC(=O)N1CCC[C@]12CC=CCCCC1(CCCC=CCCCOC(=O)N3CC[C@@]4(C3)NC(=O)[C@H](CC(C)C)NC(=O)[C@H](Cc3ccccc3)NC(=O)[C@H](C)NC(=O)[C@H](CCCCNC(=O)c3ccccc3-c3ccccc3C(=O)NCCCC[C@@H](C(N)=O)NC(=O)[C@H](Cc3csc5ccccc35)NC(=O)[C@H](Cc3ccsc3)NC4=O)NC(=O)[C@H](Cc3cccc(C(=O)O)c3)NC(=O)[C@H](CC(=O)O)NC1=O)NC(=O)[C@H](CC(C)(C)C)NC(=O)[C@H](CC(=O)O)NC2=O (stereo partly drawn) [I-48, Ac-PL3-Asp-Npg-B5-Asp-3COOHF-[diphenate]-Lys-Ala-Phe-Leu-PyrS2-3Thi-BztA-Lys-NH2] | < 50 | > 10000 |
| CC(=O)N1CCC[C@]12CCCCCCC1(CCCCCCCCOC(=O)N3CC[C@@]4(C3)NC(=O)[C@H](CC(C)C)NC(=O)[C@H](Cc3ccccc3)NC(=O)[C@H](C)NC(=O)[C@H](CCC(=O)N3CCC5(CCCN(C5)C(=O)CC[C@@H](C(=O)N[C@@H](C)C(N)=O)NC(=O)[C@H](Cc5csc6ccccc56)NC(=O)[C@H](Cc5ccccc5C(F)(F)F)NC4=O)CC3)NC(=O)[C@H](Cc3cccc(C(=O)O)c3)NC(=O)[C@H](CC(=O)O)NC1=O)NC(=O)[C@H](CC(C)(C)C)NC(=O)[C@H](CC(=O)O)NC2=O (stereo partly drawn) [I-134, Ac-PL3-Asp-Npg-B5-Asp-3COOHF-GlnR-Ala-Phe-Leu-PyrS2-2F3MeF-BztA-[29N2spiroundecane]GlnR-Ala-NH2] | 200 to 750 | > 10000 |
